Among the data in ChEMBL document CHEMBL1129096, “4-bromo-1-methoxy-N-[2-(4-aryl-1-piperazinyl)ethyl]-2-naphthalenecarboxamides: Selective dopamine D3 receptor partial agonists” (Bioorg Med Chem Lett, 1996) are Ki values, retold here.

The chains behind the UniProt entries cited, without tags or fusion partners.
UniProt P35462, whole entry: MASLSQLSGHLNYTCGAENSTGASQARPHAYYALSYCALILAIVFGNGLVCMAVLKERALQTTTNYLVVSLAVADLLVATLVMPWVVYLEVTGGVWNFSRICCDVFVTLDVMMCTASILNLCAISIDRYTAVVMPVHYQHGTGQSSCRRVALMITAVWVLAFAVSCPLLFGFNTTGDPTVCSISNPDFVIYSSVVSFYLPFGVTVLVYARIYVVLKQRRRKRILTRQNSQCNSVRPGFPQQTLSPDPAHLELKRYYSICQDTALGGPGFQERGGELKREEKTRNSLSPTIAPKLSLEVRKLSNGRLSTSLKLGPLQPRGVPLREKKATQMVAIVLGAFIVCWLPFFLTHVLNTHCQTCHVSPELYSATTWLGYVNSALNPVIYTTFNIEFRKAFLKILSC

The target of this test is D(3) dopamine receptor (Homo sapiens, UniProt P35462). In words: Binding affinity at Dopamine D3 receptors in rat striatum by [3H]-spiperone displacement. The class given is tissue-based.

One may read the Ki as the dissociation constant of the complex between target and ligand, obtained from inhibition or displacement. Low values mean tighter binding, high ones weaker binding. `COc1c(C(=O)NCCN2CCN(c3cccc(Cl)c3Cl)CC2)cc(Br)c2ccccc12` came in with a Ki of 8 nM.
